{"sequences": {"note": "The chains behind the UniProt entries cited, without tags or fusion partners.", "UniProt P97266, whole entry": "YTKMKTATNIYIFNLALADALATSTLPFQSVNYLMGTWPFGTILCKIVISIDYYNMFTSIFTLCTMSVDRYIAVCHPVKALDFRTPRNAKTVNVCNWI"}, "source": "patent US8637521B2", "about": "“Substituted piperazin-2,5-diones and their use as multifunctional bioactive compounds” (priority 2006, dated 2014)", "target": "μ-receptor (isolated guinea pig ileum, GPI) (Cavia porcellus, UniProt P97266)", "assay": "Peripheral opioid activity: inhibition of electrically-induced contractions of isolated guinea pig ileum (GPI)", "procedure": "The segment of GPI about 1 cm long was placed into a 10-ml organ bath containing Krebs solution at 34° C. […] Resting tension of the organ was 1 g. The segment of GPI was stimulated by single pulses duration 1 ms with 0.1 Hz at 80 V. The solution with isolated organs was constantly aerated. The contractions were recorded in an isometrical mode by a sensor K 30 (Hugo Sachs Elektronic KG) with paper register Rikadenki-series (Japan).\nThe substances tested were dissolved in distilled water and added cumulatively to the organ bath at a volume of 5 to 30 mcl. Each subsequent substance was added after the isolated organs were washed 3 or 4 times for 12-15 min. On the basis of the data obtained, dose-effects curves were plotted and the activity of substances was expressed by IC50 or pD2. The pD2 index was equal to a negative decimal logarithm of the substance concentration causing a 50% of the maximal effect.\nNew dermorphin analogues were tested in the standard model of Guinea pig ileum binding test.\nFor confirmation of opioid activity, the specific antagonist naloxson was used in concentration of 10^−5M. Each molecule was tested in 5 independent replications and relative activity was calculated as negative logarithm of EC50 (pD2).", "data": [{"substance": "H-Tyr-D-Ala-Phe-Gly-OH [Compound 55]", "values": [{"measurement": "EC50", "setting": "concentration reducing contraction amplitude by 50%, 5 replications, read-out: Median EC50", "value": 1, "unit": "µM"}, {"measurement": "Value of pD2 (M ± m)", "setting": "negative logarithm of EC50", "value": "5.81 ± 0.16"}]}]}
